# Results published in ChEMBL document CHEMBL5316306, “Discovery of Highly Selective Inhibitors of the Human Constitutive Proteasome β5c Chymotryptic Subunit” (J Med Chem, 2023).
# Assay: Selectivity index, ratio of IC50 for 20s immunoproteasome beta-5i subunit (unknown origin) to IC50 for 20s constitutive proteasome beta-5i subunit (unknown origin)
structure (smiles),measurement,value
CC(C)(C)NC(=O)C[C@H](NC(=O)C(=O)c1c[nH]c2ccccc12)C(=O)NCc1cccc(B(O)O)c1,Ratio IC50,710
